Test results published in US20250288584A1, “COMBINATIONS COMPRISING POSITIVE ALLOSTERIC MODULATORS OR ORTHOSTERIC AGONISTS OF METABOTROPIC GLUTAMATERGIC RECEPTOR SUBTYPE 2 AND THEIR USE” (JANSSEN PHARMACEUTICA NV, priority 2014, published 2025).
Values belong to the compound of their own block, whether it stands above or below them.

Chains of the proteins cited; added tags and fusions are not shown. Residues count along the entry.
UniProt Q14416, 19-872: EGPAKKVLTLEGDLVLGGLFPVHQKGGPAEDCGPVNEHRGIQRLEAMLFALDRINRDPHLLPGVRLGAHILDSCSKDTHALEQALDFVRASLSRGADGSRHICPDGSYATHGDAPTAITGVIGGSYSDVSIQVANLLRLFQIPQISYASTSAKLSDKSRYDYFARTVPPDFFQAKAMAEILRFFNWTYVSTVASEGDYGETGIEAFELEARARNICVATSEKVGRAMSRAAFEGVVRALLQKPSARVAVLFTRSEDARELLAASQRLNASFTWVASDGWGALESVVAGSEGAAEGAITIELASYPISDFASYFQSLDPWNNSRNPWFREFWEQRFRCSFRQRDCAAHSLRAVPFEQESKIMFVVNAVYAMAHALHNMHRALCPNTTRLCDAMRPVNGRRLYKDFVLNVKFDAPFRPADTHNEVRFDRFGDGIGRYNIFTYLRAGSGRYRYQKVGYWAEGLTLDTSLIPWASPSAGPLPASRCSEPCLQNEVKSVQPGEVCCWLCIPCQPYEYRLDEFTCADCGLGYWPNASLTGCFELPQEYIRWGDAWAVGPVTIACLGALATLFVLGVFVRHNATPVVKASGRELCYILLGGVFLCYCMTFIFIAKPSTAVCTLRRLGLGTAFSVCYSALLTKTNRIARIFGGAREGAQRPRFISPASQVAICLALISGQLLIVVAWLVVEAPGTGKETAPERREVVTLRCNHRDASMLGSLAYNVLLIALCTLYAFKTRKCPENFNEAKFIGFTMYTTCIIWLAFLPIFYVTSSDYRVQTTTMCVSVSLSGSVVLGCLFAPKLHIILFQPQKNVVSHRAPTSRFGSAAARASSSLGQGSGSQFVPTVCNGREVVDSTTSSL

Target: T1, human mGlu2 receptor (Homo sapiens, UniProt Q14416)
T1 construct: expressed in transfected cells; host or cells: CHO cells
Assay: [35S]GTPγS binding assay, mGluR2 PAM
Type: biochemical
Conditions: for Emax: read-out: GTPγS-hmGluR2 PAM Emax, maximal % effect relative to control glutamate response; for Emax / GTPγS-hmGluR2 PAM Emax: EC20 glutamate; for GTPγS-hmGluR2 PAM Emax: maximal % effect relative to control glutamate response
Experimental: The [^35S]GTPγS binding assay is a functional membrane-based assay used to study G-protein coupled receptor (GPCR) function whereby incorporation of a non-hydrolysable form of GTP, [^35S]GTPγS (guanosine 5′-triphosphate, labelled with […] ^35S), is measured.
Cells were then collected by scraping in PBS and cell suspension was centrifuged (10 min at 4000 RPM in benchtop centrifuge). Supernatant was discarded and pellet gently resuspended in 50 mM Tris-HCl, pH 7.4 by mixing with a vortex and pipetting up and down. The suspension was centrifuged at 16,000 RPM (Sorvall RC-5C plus rotor SS-34) for 10 minutes and the supernatant discarded. The pellet was homogenized in 5 mM Tris-HCl, pH 7.4 using an ultra-turrax homogenizer and centrifuged again (18,000 RPM, 20 min, 4° C.). The final pellet was resuspended in 50 mM Tris-HCl, pH 7.4 and stored at-80° C. in appropriate aliquots before use. Protein concentration was determined by the Bradford method (Bio-Rad, USA) with bovine serum albumin as standard.
Measurement of mGluR2 positive allosteric modulatory activity of test compounds was performed as follows. Test compounds and glutamate were diluted in assay buffer containing 10 mM HEPES acid, 10 mM HEPES salt, pH 7.4, 100 mM NaCl, 3 mM MgCl2 and 10 μM GDP. Human mGlu2 receptor-containing membranes were thawed on ice and diluted in assay buffer supplemented with 14 μg/ml saponin. Membranes were pre-incubated with compound alone or together with a predefined (˜EC20) concentration of glutamate (PAM assay) for 30 min at 30° C. After addition of [^35S] GTPγS (f.c. 0.1 nM), assay mixtures were shaken briefly and further incubated to allow [^35S] GTPγS incorporation on activation (30 minutes, 30° C.). Final assay mixtures contained 7 μg of membrane protein in 10 mM HEPES acid, 10 mM HEPES salt, pH 7.4, 100 mM NaCl, 3 mM MgCl2, 10 µM GDP and 2 μg/ml saponin. Total reaction volume was 200 μl. Reactions were terminated by rapid filtration through Unifilter-96 GF/B plates (Perkin Elmer, Massachusetts, USA) using a 96-well filtermate universal harvester. Filters were washed 6 times with ice-cold 10 mM NaH2PO4/10 mM Na2HPO4, pH 7.4. Filters were then air-dried, and 40 μl of liquid scintillation cocktail (Microscint-O) was added to each well. Membrane-bound radioactivity was counted in a Microplate Scintillation and Luminescence Counter from Perkin Elmer.
The concentration-response curves of representative compounds of the present invention-obtained in the presence of EC20 of mGluR2 agonist glutamate to determine positive allosteric modulation (PAM)—were generated using the Lexis software interface (developed at J&J). Data were calculated as % of the control glutamate response, defined as the maximal response that is generated upon addition of glutamate alone. Sigmoid concentration-response curves plotting these percentages versus the log concentration of the test compound were analyzed using non-linear regression analysis. The concentration producing half-maximal effect is then calculated as EC50. The pEC50 values below were calculated as the −log EC50, when the EC50 is expressed in M. Emax is defined as relative maximal effect (i.e. maximal % effect relative to the control glutamate response).

SMILES: CCc1nnc2c(C(F)(F)F)c(C(C)Oc3ccc(F)cc3F)ccn12 (stereo not drawn) [Co. No. 24-b, 7-[1-(2,4-Difluorophenoxy)ethyl]-3-ethyl-8-(trifluoromethyl)[1,2,4]triazolo[4,3-a]pyridine]
Emax: 193%

GTPγS-hmGluR2 PAM Emax (listed as 29-b): 77%
SMILES: CCc1nnc2c(C(F)(F)F)c(C(C)Oc3c(F)cc(F)cc3F)ccn12 (single isomer, unassigned) [Co. No. 29-b, 3-Ethyl-8-(trifluoromethyl)-7-[(1*S)-1-(2,4,6-trifluorophenoxy)ethyl]-[1,2,4]triazolo-[4,3-a]pyridine]

SMILES: CCc1nnc2c(C(F)(F)F)c(C(C)Oc3ccc(F)cc3F)ccn12 (single isomer, unassigned) [Co. No. 26-b, 7-[(1*R)-1-(2,4-Difluorophenoxy)ethyl]-3-ethyl-8-(trifluoromethyl)[1,2,4]triazolo-[4,3-a]pyridine]
EC50 (in presence of EC20 glutamate, read-out: GTPγS-hmGluR2 PAM pEC50 (converted)): 166 nM | Emax: 214%

GTPγS-hmGluR2 PAM Emax (listed as 28-b): 234%
SMILES: CCc1nnc2c(C(F)(F)F)c(C(C)Oc3c(F)cc(F)cc3F)ccn12 (single isomer, unassigned) [Co. No. 28-b, 3-Ethyl-8-(trifluoromethyl)-7-[(1*R)-1-(2,4,6-trifluorophenoxy)ethyl]-[1,2,4]triazolo-[4,3-a]pyridine]

SMILES: CCc1nnc2c(C(F)(F)F)c(C(C)Oc3ccc(F)cc3F)ccn12 (single isomer, unassigned) [Co. No. 27-b, 7-[(1*S)-1-(2,4-Difluorophenoxy)ethyl]-3-ethyl-8-(trifluoromethyl)[1,2,4]triazolo-[4,3-a]pyridine]
GTPγS-hmGluR2 PAM Emax: 51%
